Laboratory results reported in patent publication US9650400B2, “Voriconazole sodium phosphate hydrates and polymorphs thereof” (SHAANXI SYNTHETIC PHARMACEUTICAL CO., LTD., priority 2013, dated 2017).

Key:
[1] = Hydroscopicity comparison (moisture absorption, 25° C. and 80% humidity, 24 hours); assay type: physicochemical
Method: (§1) Voriconazole phosphate anhydrate and Voriconazole phosphate hydrate were prepared using different methods, and placed under conditions of 25° C. and 80% humidity for 24 hours, and then the weight increase due to moisture absorption was determined.

[2] = assay type: physicochemical
Method: as §1
Sample injection was carried out by using a sample prepared by allowing the sample in Example 17 to absorb moisture, and the results are shown in Table 5.

## Voriconazole phosphate anhydrate
[1]
  Weight increase by moisture absorption, by weight: 17.5%
[2]; 24 hour moisture absorption
  Individual impurity, by weight: Individual impurity 0.30%
  Total impurity, by weight: Total impurity 0.37%
[2]; 24 hours
  change in impurity after absorbing moisture (in words): more than one time of increase in impurities
